Reference: patent US11634412B2, “3-phosphoglycerate dehydrogenase inhibitors and uses thereof” (Raze Therapeutics, Inc., priority 2016, dated 2023)

Chains of the proteins cited; added tags and fusions are not shown.
UniProt O43175, whole entry: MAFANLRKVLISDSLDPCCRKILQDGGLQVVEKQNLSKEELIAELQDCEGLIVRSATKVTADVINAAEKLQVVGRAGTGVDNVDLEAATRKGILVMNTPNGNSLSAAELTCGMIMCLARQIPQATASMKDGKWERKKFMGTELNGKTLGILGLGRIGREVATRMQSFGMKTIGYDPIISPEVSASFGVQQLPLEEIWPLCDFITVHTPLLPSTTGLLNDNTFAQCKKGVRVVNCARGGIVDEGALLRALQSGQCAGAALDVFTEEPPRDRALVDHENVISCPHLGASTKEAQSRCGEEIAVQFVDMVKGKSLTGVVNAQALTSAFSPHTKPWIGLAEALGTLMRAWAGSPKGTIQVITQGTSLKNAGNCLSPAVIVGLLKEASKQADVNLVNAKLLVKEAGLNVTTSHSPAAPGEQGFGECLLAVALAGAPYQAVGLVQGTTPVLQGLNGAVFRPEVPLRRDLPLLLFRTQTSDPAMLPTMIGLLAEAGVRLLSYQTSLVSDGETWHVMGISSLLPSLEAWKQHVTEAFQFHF

Biological target: Full length (FL) 3-Phosphoglycerate Dehydrogenase (PHGDH) (Homo sapiens, UniProt O43175)
Assay: Full length (FL) PHGDH Diaphorase coupled assay (500 uM NAD)
Conditions: read-out: FL Diaphorase 500 μM NAD, full-length PHGDH 5 nM, 30° C. 60 minutes, resorufin fluorescence

IC50 [nM] | Structure (SMILES)
1 to 1000 | COc1ccc2c(cc(C(=O)NC3(c4ccc(C(C(=O)O)C5CCCC5)cc4)COC3)n2C)c1Cl (single isomer, unassigned)
1 to 1000 | COc1ccc2c(cc(C(=O)NC3(c4ccc(C(C(=O)O)C(C)C)cc4)COC3)n2C)c1Cl (single isomer, unassigned)
